Reference: US9365521B2, “Non-hygroscopic salts of 5-HT2C agonists” (Arena Pharmaceuticals, Inc., priority 2010, dated 2016)

Assay: Solubility in water by UPLC
Format: physicochemical

Substance: (R)-8-chloro-1-methyl-2,3,4,5-tetrahydro-1H-3-benzazepine citrate salt hemihydrate
- solubility in water: 33.9 mg/mL
